Shown are results outside the selection of hits, which stands elsewhere. Results filed as inconclusive are left out. Activity calls are given as the source filed them. Calls come from the whole dose curve; as a rule, active = well fitted inhibition curve with a large enough effect; inconclusive = small, poorly fitted or top-dose-only effect; inactive = flat fitted curve, though single readings scatter.
What follows are compounds tested on KB-3-1 (assay: Cytotoxic Profiling of Annotated Libraries Using Quantitative High-Throughput Screening (AID 1296008)). Settings: Five cell lines viability, CellTiter-Glo ATP luminescence, 48-72 h, hits give low values.
Method in brief: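 Cells exposed to compounds for 48 or 72 hr at 37 degrees Celsius. Viability read as ATP-coupled luminescence with CellTiter-Glo after 10 min at room temperature.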
% is set by controls: 0 for no effect and ±100 for the full control effect.
Note: nearly all actives have a fitted effect of over 60% in size.

Question: How did the max response turn out when `NC(N)=O` was run?
Answer: inactive: -1.39%

Question: For `CN1CCN(CCC=C2c3ccccc3Sc3ccc(S(=O)(=O)N(C)C)cc32)CC1`, which max response is on record?
Answer: inactive: -1.88%

Question: For `CC(C)(C)NCC(O)COc1cccc2c1C[C@H](O)[C@H](O)C2` (some centres not stated), which max response is on record?
Answer: inactive: -11.4%

Question: How did the max response turn out when `Cc1cn([C@H]2C[C@H](F)[C@@H](CO)O2)c(=O)[nH]c1=O` was run?
Answer: inactive: -4.3%

Question: Which max response does the source give for `C[C@]12C[C@H](O)[C@H]3[C@@H](CCC4=CC(=O)CC[C@@]43C)[C@@H]1CC[C@@H]2C(=O)CO` here?
Answer: inactive: -1.46%

Question: For `O=C(O)CCCC[C@@H]1SC[C@@H]2NC(=O)N[C@@H]21`, which max response is on record?
Answer: inactive: -9.42%

Question: For `CN=C(NC#N)NCCSCc1csc(N=C(N)N)n1`, which max response is on record?
Answer: inactive: 19.3%

Question: Which max response does the source give for `CC(C)(C)C1(O)CCN2CC3c4ccccc4CCc4cccc(c43)C2C1` (configuration not stated) here?
Answer: inactive: 23.3%

Question: For `Cc1ccccc1`, which max response is on record?
Answer: inactive: -8.83%

Question: How did the max response turn out when `C[C@]12CCC(=O)C=C1CC[C@@H]1[C@@H]2C(=O)C[C@@]2(C)[C@H]1CC[C@]2(O)C(=O)CO` was run?
Answer: inactive: -2.98%

Question: Which max response does the source give for `CC(C)O` here?
Answer: inactive: -22%

These compounds were tested on MCC-13 (assay: qHTS assay to identify novel small-molecules to repurpose for Merkel cell carcinoma treatment (AID 1296009)). Settings: MCC and control cell lines, CellTiter-Glo viability, 72 h; at 46 µM (top of the series).
Method in brief: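 Cells were incubated with compound for 72 hr at 37 degree celsius before CellTiter-Glo addition. Luminescence was normalized with no-cell wells as full cytotoxicity and DMSO as baseline.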

Question: `C#C[C@]1(OC(C)=O)CC[C@H]2[C@@H]3CCC4=C[C@@H](OC(C)=O)CC[C@@H]4[C@H]3CC[C@@]21C` was tested. Which activity change, negative = cytotoxicity did it give?
Answer: inactive: -7.15%

Question: How did the activity change, negative = cytotoxicity turn out when `Cc1nnc(NS(=O)(=O)c2ccc(N)cc2)s1` was run?
Answer: inactive: -3.19%

Question: How did the activity change, negative = cytotoxicity turn out when `Oc1ccc(C2CNCCc3c2cc(O)c(O)c3Cl)cc1` (configuration not stated) was run?
Answer: inactive: -1.16%

Question: For `CN1C(CCl)Nc2cc(Cl)c(S(N)(=O)=O)cc2S1(=O)=O` (configuration not stated), which activity change, negative = cytotoxicity is on record?
Answer: inactive: 11.9%

Question: For `Nc1nc2c(ncn2COCCO)c(=O)[nH]1`, which activity change, negative = cytotoxicity is on record?
Answer: inactive: -0.45%

Question: `COc1cccc(OC)c1C(=O)N[C@@H]1C(=O)N2[C@@H]1SC(C)(C)[C@@H]2C(=O)O` was tested. Which activity change, negative = cytotoxicity did it give?
Answer: inactive: -14%

Question: For `CC(C)Oc1ccc2c(=O)c(-c3ccccc3)coc2c1`, which activity change, negative = cytotoxicity is on record?
Answer: inactive: 4.42%

Question: Which activity change, negative = cytotoxicity does the source give for `Cc1cccc(C)c1OCC(=O)N[C@@H](Cc1ccccc1)[C@@H](O)C[C@H](Cc1ccccc1)NC(=O)[C@H](C(C)C)N1CCCNC1=O` here?
Answer: inactive: 5.11%

Question: With `N[C@@H]1CONC1=O` as the compound, how does the activity change, negative = cytotoxicity read?
Answer: inactive: 2.73%

Question: For `Nc1[nH]c(=O)ncc1F`, which activity change, negative = cytotoxicity is on record?
Answer: inactive: -1.18%

Question: Which activity change, negative = cytotoxicity does the source give for `CCCCc1nc(Cl)c(CO)n1Cc1ccc(-c2ccccc2-c2nn[nH]n2)cc1` here?
Answer: inactive: 17.8%

From PubChem BioAssay (NCATS)
